Target: GLP-1R (Homo sapiens, UniProt P43220)
Assay: Agonist activity on GLP-1R, HTRF cAMP detection in stably transfected GLP-1R/HEK293 cells
Format: cell-based
Conditions: 30 min incubation

The chains behind the UniProt entries cited, without tags or fusion partners. Residues count along the entry.
UniProt P43220, 24-463 limits assumed: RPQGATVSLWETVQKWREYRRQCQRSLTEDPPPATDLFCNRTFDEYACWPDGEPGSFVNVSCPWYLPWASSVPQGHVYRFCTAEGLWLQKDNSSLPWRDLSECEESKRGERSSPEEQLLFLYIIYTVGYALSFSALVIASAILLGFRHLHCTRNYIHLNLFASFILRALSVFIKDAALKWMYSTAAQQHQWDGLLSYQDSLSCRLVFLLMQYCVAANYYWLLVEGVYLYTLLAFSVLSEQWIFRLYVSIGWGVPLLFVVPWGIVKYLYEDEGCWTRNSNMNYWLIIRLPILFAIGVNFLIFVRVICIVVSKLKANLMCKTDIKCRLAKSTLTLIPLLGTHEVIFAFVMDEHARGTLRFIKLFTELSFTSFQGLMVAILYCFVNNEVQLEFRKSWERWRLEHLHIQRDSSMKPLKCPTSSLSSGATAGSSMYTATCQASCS

In the case of `CCn1cncc1Cn1c(CN2CCC(Oc3ccc(F)c(OCc4ccc(C#N)cc4F)n3)CC2)nc2ccc(C(=O)O)cc21`, the EC50 is reported as 1.25 nM.

From patent US20250282757A1, “ARYL ETHER-SUBSTITUTED HETEROCYCLIC COMPOUNDS AS GLP1R AGONISTS” (MINDRANK AI LTD., priority 2021, published 2025)
